ChEMBL document CHEMBL2218924, “A broad activity screen in support of a chemogenomic map for kinase signalling research and drug discovery” (Biochem J, 2013)
For some of these results: What follows is the remainder of the data, with few or none of the strong results. The list shows a part of the results, in another mix than the full data.

Amino acid sequences for entries named in this document (tags omitted). A change or cut given only in a name is not applied to a line headed by its entry.
UniProt P08631: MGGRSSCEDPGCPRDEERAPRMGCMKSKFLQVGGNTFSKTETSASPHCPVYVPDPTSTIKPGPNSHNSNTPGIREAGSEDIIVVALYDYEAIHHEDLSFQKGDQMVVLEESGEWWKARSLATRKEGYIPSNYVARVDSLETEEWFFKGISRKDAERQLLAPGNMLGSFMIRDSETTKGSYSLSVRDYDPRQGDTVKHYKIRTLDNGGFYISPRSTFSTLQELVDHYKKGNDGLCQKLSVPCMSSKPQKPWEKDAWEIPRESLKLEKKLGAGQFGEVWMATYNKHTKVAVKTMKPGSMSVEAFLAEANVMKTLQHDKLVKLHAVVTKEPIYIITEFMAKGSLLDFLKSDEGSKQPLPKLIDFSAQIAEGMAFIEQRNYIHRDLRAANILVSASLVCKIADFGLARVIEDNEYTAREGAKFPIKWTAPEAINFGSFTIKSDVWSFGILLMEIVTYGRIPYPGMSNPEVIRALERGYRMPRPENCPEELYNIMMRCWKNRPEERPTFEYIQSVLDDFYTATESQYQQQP
UniProt O96013: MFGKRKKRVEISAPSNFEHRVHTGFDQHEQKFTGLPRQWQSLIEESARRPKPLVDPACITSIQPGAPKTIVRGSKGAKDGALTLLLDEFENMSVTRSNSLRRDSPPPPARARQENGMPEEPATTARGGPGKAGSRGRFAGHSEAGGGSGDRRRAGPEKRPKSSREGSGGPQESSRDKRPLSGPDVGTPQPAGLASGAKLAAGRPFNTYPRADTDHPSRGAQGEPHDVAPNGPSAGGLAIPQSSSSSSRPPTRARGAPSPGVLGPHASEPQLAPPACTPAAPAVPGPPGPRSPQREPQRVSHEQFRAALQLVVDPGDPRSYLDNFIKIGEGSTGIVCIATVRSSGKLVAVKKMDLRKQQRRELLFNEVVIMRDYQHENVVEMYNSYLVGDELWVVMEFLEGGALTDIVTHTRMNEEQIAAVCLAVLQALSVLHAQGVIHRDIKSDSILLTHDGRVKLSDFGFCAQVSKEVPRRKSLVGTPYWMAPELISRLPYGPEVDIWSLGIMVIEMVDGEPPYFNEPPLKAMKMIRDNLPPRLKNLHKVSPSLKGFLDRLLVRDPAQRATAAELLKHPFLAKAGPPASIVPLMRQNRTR
UniProt Q9UPE1, whole entry: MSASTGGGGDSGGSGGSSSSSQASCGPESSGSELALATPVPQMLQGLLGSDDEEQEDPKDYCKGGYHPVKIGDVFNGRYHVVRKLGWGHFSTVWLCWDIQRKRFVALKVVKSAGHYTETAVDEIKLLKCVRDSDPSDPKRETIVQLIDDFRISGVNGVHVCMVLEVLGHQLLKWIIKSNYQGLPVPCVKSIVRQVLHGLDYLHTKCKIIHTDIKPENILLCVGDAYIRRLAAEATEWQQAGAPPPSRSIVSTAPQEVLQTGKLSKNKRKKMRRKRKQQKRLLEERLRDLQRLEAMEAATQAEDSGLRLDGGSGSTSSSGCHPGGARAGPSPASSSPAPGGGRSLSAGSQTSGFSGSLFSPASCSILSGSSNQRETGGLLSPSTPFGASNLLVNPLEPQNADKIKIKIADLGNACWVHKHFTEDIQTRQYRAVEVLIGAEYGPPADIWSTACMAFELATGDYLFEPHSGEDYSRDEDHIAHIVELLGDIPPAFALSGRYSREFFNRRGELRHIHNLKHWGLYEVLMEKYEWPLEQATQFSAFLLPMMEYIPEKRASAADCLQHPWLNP

Tests used:
[1] = target: Tyrosine-protein kinase HCK (Homo sapiens) (UniProt P08631); settings: at 10 µM
[2] = target: Serine/threonine-protein kinase PAK 4 (Homo sapiens) (UniProt O96013); settings: at 1 µM
[3] = target: Serine/threonine-protein kinase PAK 4 (Homo sapiens) (UniProt O96013); settings: at 10 µM
[4] = target: SRSF protein kinase 3 (Homo sapiens) (UniProt Q9UPE1); settings: at 1 µM;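 further: residual kinase activity expressed as percent of uninhibited control, measured in MOPS buffer at pH 7.0 containing EDTA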

Row | SMILES | residual activity [1] [%] | residual activity [2] [%] | residual activity [3] [%] | residual activity [4] [%]
1 | COc1cc(OC)c(/C=C2\C(=O)Nc3ccccc32)c(OC)c1 | 88 | 89 | 89 | –
2 | CN[C@@H]1C[C@H]2O[C@@](C)([C@@H]1OC)n1c3ccccc3c3c4c(c5c6ccccc6n2c5c31)C(=O)NC4 | – | – | – | 92
